Biological target: Dual specificity protein kinase CLK4 (Homo sapiens, UniProt Q9HAZ1)

Chains of the proteins cited; added tags and fusions are not shown. Lines headed by an entry give the natural chain unless they say otherwise; changes in a name come on top.
UniProt Q9HAZ1: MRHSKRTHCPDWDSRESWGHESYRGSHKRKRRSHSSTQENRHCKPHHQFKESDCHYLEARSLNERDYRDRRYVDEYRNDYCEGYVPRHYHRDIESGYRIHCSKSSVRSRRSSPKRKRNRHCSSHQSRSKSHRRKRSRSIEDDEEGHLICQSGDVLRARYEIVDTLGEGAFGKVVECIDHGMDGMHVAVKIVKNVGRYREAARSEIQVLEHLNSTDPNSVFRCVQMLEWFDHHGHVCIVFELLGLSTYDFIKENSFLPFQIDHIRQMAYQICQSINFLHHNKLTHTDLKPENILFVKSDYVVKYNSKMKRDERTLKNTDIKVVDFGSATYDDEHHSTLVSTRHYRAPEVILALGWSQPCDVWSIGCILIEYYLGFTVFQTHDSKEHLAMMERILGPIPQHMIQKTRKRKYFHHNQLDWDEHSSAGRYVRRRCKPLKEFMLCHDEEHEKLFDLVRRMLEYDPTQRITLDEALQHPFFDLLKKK

## NC(=NCCCCCCN=C(N)NC(N)=Nc1ccc(Cl)cc1)N=C(N)Nc1ccc(Cl)cc1 [N',N'''''-hexane-1,6-diylbis[N-(4-chlorophenyl)(imidodicarbonimidic diamide)]]
  IC50: > 10 µM

Source: BindingDB's records for PubMed 36876904 (Perha Pharmaceuticals, 2023)
